Measured values from patent publication US11638707B2, “Substituted amino triazoles useful as chitinase inhibitors” (Molecure S.A., priority 2019, dated 2023).

Chains of the proteins cited; added tags and fusions are not shown. Lines headed by an entry give the natural chain unless they say otherwise; changes in a name come on top. Residues count along the entry.
UniProt Q12809: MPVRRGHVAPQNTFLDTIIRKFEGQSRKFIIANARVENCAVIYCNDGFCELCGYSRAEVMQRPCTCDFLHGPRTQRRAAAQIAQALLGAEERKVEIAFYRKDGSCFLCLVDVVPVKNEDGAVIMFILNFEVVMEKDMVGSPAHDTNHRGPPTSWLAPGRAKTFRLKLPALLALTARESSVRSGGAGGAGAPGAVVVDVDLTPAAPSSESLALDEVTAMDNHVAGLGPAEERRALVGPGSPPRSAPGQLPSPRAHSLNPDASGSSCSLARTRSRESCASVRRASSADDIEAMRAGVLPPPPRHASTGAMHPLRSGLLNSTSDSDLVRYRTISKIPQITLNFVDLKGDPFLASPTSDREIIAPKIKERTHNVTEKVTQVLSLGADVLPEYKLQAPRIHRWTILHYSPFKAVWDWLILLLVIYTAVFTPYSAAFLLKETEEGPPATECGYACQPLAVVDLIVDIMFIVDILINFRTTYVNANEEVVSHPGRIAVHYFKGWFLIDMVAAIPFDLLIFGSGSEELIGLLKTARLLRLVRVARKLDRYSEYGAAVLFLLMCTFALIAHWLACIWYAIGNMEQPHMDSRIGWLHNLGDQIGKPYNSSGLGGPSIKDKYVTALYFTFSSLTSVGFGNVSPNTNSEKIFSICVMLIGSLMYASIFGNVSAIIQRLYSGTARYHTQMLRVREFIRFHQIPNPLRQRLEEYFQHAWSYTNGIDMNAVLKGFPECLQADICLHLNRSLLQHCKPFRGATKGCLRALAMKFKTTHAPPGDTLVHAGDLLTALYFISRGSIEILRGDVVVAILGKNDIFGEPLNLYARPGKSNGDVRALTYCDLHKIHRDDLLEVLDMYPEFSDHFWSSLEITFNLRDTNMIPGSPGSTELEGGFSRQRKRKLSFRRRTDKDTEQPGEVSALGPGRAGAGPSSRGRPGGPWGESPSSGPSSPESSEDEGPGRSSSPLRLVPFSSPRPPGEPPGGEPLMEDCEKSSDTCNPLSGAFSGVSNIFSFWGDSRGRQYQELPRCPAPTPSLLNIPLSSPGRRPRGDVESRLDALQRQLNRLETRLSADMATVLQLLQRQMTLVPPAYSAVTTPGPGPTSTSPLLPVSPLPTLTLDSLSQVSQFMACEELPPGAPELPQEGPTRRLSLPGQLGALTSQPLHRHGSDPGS
UniProt Q9BZP6, 22-476: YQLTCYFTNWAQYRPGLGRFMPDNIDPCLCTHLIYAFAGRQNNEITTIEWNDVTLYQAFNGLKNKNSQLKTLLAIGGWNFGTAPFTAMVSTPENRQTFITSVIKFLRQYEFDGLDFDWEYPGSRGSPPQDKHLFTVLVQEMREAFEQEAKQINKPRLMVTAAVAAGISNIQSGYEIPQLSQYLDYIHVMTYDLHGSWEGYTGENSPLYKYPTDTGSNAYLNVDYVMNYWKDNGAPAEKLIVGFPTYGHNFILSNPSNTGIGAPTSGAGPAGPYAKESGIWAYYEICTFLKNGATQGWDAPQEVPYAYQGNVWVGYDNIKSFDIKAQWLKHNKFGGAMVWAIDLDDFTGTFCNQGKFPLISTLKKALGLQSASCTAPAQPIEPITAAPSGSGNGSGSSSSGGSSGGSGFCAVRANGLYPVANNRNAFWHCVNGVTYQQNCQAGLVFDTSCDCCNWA

Key:
[1] = target: hERG channel (Homo sapiens (Human), UniProt Q12809); experiment: Human ERG channel binding assay (fluorescence polarization)
[2] = target: recombinant human AMCase (Homo sapiens (Human), UniProt Q9BZP6); experiment: Human AMCase activity assay; format: biochemical; conditions: citrate buffer pH 5.2, 37° C., 60 minutes, read-out: hAMCase, IC50
Method: The assay was run in the 96-well plate format, each reaction in the total volume of 100 μL. 4-Methylumbelliferyl B-D-N,N′-diacetylchitobioside hydrate was used as a substrate for the enzyme. Upon hydrolysis by AMCase, the substrate releases 4-methylumbelliferyl (4MU) that, when ionized in basic pH, emits fluorescence at 460 nm. Briefly, 40 μL of a substrate was added to each well, followed by 10 μL of compound dilution and 50 μL of hAMCase recombinant enzyme solution. The reaction was carried out in citrate buffer, pH 5.2, in the dark, at 37° C. for 60 minutes with shaking. […] The IC50 values were calculated using GraphPad Prism.

IC50 [2]	Compound	IC50 [1]
	Nc1nnc(N2CCC(N3C[C@H](COCC(F)F)OC[C@@H]3Cc3ccc(Cl)cc3)CC2)[nH]1 [Example 43, 5-(4-((2R,5S)-5-(4-chlorobenzyl)-2-((2,2-difluoroethoxy)methyl)morpholino)-piperidin-1-yl)-4H-1,2,4-triazol-3-amine 2,2,2-trifluoroacetate]	1000 to 10000 nM
< 100 nM	CC1(O)CCN(C2CCN(c3nnc(N)[nH]3)CC2)[C@@H](Cc2ccc(Cl)cc2)C1 (stereo partly drawn) [Example 59, (2S)-1′-(5-amino-4H-1,2,4-triazol-3-yl)-2-(4-chlorobenzyl)-4-methyl-[1,4′-bipiperidin]-4-ol 2,2,2-trifluoroacetate]	
< 100 nM	CO[C@@H]1CC[C@H](Cc2ccc(Cl)cc2)N(C2CCN(c3nnc(N)[nH]3)CC2)C1 [Example 71, 5-((2R,5R)-2-(4-chlorobenzyl)-5-methoxy-[1,4′-bipiperidin]-1′-yl)-4H-1,2,4-triazol-3-amine 2,2,2-trifluoroacetate]	
